Values of other authors in patent US20070254903A1, “Novel Spiroindoline or Spiroisoquinoline Compounds, Methods of Use and Compositions Thereof” (ARENA PHARMACEUTICALS, INC., priority 2003, published 2007).

By UniProt entry, the sequences of proteins in these tests, tags left out.
UniProt Q9GZQ6, whole entry, species assumed: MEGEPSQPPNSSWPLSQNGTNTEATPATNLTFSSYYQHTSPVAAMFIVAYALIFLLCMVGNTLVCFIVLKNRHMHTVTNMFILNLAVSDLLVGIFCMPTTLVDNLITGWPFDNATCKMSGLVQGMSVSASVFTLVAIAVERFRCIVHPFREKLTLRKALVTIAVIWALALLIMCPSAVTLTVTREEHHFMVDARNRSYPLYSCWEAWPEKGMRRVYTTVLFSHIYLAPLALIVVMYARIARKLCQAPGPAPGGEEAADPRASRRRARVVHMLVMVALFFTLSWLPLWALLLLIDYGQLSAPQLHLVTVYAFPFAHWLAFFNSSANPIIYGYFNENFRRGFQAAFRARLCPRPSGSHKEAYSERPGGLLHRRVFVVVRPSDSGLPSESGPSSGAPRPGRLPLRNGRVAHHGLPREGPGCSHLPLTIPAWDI
UniProt Q9Y5X5, whole entry, species assumed: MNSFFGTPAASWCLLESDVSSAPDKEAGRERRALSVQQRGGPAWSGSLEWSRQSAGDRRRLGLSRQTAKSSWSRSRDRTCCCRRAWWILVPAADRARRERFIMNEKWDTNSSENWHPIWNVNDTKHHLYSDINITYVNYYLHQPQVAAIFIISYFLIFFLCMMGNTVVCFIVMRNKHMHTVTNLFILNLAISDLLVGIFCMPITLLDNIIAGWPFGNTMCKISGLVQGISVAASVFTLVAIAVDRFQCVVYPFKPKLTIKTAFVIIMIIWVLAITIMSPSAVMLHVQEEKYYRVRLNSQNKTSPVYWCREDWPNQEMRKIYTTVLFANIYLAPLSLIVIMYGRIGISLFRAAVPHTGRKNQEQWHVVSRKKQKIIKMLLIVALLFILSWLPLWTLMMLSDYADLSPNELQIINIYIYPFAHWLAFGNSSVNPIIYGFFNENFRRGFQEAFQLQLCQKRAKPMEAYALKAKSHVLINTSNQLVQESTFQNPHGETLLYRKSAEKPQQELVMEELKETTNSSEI

What was measured:
[1] = target: NPFF1 (Homo sapiens, UniProt Q9GZQ6); conditions: Bonini et al. 2000; Elshourbagy et al. 2000; cited from earlier work
[2] = target: NPFF2 (Homo sapiens, UniProt Q9Y5X5); conditions: Bonini et al. 2000; Elshourbagy et al. 2000; cited from earlier work

For “NPFF: "a peptide called NPFF" that binds the Mas receptor "fairly weakly" and with high affinity to NPFF1 and NPFF2”, the Kd [1] is given as 1300 pM and the Kd [2] is given as 300 pM.
